# Assay results as given in PubChem BioAssay AID651629 (Sanford-Burnham Center for Chemical Genomics, 2012).
# The entries are a selection whose mix differs from that of the whole data set. Active and inactive are the calls of the source.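 Rule for the calls: active = mean inhibition across replicates of 40% or more; inactive = mean inhibition below 40%.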
# Experiment: TAG lipid buildup inhibition in H9c2 – cell-based, single concentration, Nile Red fluorescence, confirmation (AID 651629);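 note: plate controls were DMSO only wells for no effect and Triacsin C treated wells for full effect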
# Settings: H9c2 lipid accumulation, at 12.5 µM, active compounds read high, cells loaded with 200 µM oleic acid
row,SMILES,inhibition
1,CC(=O)NC(SC(=S)N(CC(C)C)CC(C)C)C(Cl)(Cl)Cl (configuration not stated),active: 91.8%
2,CCC(C)N(CC(C)C)C(=S)SC(NC(C)=O)C(Cl)(Cl)Cl (configuration not stated),active: 90%
